# Measurements from BindingDB's records for 15745821.
# Chains of the proteins cited; added tags and fusions are not shown.
# UniProt P22748, whole entry, looked up: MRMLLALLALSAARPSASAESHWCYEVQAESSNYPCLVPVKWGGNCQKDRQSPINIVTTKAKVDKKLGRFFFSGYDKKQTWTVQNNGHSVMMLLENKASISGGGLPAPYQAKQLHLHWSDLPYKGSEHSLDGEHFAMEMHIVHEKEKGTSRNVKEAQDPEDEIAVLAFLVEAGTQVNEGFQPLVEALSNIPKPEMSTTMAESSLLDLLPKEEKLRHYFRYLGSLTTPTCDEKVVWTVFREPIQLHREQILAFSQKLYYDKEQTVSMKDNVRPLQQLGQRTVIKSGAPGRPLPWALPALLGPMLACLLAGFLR
# UniProt P35218, whole entry, looked up: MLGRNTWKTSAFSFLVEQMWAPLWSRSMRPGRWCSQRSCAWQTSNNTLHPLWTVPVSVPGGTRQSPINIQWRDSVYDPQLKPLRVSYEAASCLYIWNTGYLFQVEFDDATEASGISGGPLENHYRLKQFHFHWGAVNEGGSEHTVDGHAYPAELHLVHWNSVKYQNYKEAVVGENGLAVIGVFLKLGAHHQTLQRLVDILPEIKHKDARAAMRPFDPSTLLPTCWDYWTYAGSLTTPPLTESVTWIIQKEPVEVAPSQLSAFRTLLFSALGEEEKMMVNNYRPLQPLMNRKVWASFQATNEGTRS
# Experiments:
# Carbonic anhydrase 4 = Carbonic anhydrase 4 (Homo sapiens, UniProt P22748)
# Carbonic anhydrase 9 = Carbonic anhydrase 9 (Homo sapiens, UniProt Q16790)
# [1] = molecular target: Carbonic anhydrase 5A, mitochondrial (Homo sapiens, UniProt P35218)
smiles,measurement,setting,value
CP(=O)(O)O,Ki,Carbonic anhydrase 4,310 µM
same,Ki,Carbonic anhydrase 9,1260 µM
same,Ki,[1],110 µM
